Data from paper PMC7265341 (2020).
“And” between values parts separate entries of the source, which are not always exact repeats. Identical values can stand only once. Like-named read-outs stand apart in the source and are kept apart here.

Chains of the proteins cited; added tags and fusions are not shown. Lines headed by an entry give the natural chain unless they say otherwise; changes in a name come on top. A line that says so, or that is headed by a name, gives the form on record, which may keep a tag or linker. Residues count along the entry.
UniProt P06493, whole entry: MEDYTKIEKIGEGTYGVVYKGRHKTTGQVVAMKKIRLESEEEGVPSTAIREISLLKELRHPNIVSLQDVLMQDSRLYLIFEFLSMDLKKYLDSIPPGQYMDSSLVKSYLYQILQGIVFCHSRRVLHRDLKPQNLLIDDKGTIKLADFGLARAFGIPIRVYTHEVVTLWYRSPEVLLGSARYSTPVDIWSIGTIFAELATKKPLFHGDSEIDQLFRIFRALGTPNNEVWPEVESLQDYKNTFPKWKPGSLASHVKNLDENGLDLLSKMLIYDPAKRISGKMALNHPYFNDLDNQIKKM
UniProt O94921: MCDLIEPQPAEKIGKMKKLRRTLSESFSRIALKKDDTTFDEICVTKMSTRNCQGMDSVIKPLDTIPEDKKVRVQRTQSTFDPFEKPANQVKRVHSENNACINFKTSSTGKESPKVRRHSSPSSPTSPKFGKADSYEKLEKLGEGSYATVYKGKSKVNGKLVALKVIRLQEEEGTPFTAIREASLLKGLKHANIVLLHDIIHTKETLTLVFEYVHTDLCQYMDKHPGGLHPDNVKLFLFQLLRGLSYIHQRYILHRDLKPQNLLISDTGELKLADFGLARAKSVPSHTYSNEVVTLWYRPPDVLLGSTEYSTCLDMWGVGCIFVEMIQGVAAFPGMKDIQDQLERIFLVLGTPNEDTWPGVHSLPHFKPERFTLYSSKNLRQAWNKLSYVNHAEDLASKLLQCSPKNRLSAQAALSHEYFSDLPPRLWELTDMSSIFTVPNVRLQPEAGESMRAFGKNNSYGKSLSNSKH
UniProt Q07002: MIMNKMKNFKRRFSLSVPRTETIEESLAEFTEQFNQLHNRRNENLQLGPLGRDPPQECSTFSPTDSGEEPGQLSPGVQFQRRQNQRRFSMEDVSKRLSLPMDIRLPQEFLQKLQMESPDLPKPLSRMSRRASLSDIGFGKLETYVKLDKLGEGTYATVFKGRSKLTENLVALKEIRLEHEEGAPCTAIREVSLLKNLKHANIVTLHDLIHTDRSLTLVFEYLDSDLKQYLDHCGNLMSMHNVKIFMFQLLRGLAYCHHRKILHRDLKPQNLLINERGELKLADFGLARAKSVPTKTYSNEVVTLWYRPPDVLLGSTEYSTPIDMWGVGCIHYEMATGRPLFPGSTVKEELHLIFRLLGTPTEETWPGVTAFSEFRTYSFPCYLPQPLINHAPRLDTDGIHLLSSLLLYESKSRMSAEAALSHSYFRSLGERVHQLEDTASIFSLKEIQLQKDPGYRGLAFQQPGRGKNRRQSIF
UniProt Q00526: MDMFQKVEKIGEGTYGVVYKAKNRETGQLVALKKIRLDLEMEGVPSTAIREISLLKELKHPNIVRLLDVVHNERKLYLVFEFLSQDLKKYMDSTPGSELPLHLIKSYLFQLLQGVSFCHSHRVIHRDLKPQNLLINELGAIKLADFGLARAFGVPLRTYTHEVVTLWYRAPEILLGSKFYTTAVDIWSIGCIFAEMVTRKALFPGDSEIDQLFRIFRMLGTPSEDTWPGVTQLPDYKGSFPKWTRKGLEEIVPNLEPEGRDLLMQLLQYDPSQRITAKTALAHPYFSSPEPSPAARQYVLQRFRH
UniProt Q00536: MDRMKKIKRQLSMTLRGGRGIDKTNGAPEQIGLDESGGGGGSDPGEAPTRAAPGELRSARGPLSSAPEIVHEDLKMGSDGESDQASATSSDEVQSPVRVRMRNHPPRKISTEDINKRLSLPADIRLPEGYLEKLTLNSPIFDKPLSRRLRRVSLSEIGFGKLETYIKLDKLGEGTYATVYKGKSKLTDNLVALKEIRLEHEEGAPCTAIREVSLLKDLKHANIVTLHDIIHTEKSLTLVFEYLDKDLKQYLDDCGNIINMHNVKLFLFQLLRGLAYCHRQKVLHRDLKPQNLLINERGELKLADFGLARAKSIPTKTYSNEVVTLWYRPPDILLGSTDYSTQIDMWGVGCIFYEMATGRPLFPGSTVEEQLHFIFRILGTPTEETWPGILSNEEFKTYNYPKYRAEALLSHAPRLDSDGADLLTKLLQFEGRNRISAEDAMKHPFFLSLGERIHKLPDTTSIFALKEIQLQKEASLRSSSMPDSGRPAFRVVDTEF
UniProt P50750, whole entry: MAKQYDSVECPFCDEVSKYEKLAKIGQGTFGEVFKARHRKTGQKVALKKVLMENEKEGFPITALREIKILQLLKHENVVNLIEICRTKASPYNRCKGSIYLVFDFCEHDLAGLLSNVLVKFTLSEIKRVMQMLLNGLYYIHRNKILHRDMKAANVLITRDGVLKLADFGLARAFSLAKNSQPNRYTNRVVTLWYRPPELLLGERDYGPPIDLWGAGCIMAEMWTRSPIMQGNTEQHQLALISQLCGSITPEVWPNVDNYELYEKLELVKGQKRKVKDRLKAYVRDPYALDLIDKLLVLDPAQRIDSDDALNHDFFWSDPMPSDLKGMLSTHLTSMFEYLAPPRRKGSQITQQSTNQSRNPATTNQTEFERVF
UniProt Q9NYV4, 1-1481 isoform Q9NYV4-2: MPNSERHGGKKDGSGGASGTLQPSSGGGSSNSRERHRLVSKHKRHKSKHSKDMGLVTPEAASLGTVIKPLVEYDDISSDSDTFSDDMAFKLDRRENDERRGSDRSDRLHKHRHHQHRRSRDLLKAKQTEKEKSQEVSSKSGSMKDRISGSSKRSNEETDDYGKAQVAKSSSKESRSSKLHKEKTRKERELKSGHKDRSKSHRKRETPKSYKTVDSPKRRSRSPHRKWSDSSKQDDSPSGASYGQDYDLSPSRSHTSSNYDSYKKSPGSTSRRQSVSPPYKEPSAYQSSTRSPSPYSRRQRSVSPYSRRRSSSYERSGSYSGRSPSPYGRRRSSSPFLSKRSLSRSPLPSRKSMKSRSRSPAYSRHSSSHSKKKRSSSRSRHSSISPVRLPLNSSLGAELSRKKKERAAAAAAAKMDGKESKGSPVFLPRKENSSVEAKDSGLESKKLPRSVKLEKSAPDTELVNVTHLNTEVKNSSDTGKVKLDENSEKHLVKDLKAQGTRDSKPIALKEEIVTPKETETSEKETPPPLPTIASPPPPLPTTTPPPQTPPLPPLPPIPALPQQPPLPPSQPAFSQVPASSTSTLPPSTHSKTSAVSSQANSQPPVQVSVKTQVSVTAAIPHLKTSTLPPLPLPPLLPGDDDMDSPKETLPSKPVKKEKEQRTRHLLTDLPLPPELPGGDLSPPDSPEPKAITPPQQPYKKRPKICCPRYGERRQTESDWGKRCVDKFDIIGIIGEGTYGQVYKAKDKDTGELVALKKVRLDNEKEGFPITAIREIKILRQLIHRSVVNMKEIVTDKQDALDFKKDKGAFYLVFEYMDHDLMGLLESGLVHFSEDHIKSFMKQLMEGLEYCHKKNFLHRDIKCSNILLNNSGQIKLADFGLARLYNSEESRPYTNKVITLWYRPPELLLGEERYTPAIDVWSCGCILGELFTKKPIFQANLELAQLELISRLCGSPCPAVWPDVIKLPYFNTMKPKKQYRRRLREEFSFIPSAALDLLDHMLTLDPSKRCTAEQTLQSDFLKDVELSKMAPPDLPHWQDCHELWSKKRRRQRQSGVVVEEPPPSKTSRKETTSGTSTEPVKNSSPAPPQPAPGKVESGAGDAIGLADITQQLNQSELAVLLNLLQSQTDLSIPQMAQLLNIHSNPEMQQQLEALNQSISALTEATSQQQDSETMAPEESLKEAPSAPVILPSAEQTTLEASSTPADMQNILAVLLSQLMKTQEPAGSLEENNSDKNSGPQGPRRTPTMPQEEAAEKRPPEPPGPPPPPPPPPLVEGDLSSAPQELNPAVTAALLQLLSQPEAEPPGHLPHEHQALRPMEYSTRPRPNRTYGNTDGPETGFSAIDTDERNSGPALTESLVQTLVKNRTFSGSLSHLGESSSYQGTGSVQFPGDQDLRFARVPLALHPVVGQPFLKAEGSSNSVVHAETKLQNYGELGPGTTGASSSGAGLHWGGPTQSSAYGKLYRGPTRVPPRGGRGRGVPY
UniProt Q14004, other isoform, or with tags, fused parts or gaps: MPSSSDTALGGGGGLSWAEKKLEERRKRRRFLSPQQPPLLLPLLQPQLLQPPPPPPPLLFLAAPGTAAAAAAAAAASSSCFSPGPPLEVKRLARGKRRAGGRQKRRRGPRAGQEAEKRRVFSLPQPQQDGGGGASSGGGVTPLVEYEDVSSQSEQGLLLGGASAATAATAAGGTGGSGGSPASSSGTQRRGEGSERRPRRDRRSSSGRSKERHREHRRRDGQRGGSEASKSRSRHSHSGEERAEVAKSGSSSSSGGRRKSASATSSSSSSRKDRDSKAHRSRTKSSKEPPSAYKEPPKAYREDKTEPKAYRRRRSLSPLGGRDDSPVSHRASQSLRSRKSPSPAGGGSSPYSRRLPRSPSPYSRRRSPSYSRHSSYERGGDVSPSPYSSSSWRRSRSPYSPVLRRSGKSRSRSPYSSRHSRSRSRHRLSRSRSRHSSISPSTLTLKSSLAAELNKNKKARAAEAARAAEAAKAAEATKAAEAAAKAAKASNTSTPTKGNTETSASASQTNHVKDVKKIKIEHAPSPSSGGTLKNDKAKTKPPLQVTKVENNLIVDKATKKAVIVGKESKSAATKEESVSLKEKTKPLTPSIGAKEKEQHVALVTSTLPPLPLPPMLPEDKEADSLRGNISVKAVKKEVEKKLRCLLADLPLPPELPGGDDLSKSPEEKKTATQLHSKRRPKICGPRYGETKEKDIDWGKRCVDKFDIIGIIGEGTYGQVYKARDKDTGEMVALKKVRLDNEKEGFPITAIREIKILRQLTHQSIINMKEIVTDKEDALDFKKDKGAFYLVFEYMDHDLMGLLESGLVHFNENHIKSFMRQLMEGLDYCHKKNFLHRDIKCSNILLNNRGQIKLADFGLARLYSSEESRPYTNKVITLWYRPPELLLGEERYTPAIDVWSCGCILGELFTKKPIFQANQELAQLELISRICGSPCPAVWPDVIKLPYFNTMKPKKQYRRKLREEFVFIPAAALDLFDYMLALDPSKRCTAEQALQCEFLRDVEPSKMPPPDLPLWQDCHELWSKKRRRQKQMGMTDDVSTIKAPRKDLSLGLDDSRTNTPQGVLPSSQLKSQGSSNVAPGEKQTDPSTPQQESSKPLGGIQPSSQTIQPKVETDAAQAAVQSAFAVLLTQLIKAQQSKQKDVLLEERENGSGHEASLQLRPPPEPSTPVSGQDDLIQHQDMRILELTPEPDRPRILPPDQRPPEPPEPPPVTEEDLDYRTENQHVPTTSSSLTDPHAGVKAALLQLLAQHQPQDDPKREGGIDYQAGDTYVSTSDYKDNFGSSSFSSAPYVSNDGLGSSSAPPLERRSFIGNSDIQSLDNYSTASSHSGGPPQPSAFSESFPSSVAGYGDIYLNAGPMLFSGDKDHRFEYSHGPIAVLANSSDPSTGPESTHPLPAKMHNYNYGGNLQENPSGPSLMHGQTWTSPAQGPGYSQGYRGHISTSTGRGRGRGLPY
UniProt P50613: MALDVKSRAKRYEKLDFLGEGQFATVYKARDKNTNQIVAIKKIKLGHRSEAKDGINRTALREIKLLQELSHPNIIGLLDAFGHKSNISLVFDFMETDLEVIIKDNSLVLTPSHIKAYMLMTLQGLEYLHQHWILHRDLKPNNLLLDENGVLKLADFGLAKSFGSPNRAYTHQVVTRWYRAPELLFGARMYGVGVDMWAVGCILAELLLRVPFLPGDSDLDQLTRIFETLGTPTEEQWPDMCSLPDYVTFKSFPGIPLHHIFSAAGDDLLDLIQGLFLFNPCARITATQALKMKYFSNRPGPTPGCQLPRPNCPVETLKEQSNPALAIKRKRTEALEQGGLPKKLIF
UniProt Q00535, whole entry: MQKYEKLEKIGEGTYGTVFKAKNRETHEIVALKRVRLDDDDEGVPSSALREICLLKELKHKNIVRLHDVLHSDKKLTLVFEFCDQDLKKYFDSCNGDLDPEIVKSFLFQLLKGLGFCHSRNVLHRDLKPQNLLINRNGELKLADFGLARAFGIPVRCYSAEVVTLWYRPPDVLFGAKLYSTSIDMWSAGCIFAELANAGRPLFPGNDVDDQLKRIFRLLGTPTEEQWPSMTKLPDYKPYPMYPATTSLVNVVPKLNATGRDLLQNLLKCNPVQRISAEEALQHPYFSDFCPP
UniProt P11802: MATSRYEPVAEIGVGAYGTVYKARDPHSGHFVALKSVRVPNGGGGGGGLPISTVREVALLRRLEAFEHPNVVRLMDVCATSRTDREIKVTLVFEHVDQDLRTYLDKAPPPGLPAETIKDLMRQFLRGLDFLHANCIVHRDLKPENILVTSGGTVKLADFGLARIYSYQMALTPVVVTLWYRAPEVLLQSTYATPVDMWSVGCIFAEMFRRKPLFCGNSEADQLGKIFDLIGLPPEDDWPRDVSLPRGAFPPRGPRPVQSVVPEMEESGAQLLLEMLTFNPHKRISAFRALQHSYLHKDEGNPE

Key:
CDK15/Cyclin Y = CDK15/Cyclin Y (Homo sapiens, UniProt Q96Q40); test: NanoBRET live-cell target engagement, NanoLuc-CDK15/Cyclin Y in HEK-293; details: for IC50: IC50 (nM), CDK15/Y
CDK1/Cyclin E1 = CDK1/Cyclin E1 (Homo sapiens, UniProt P06493); test: NanoBRET live-cell target engagement, CDK1-NanoLuc/Cyclin E1 in HEK-293
CDK14/Cyclin Y = CDK14/Cyclin Y (Homo sapiens, UniProt O94921); test: NanoBRET live-cell target engagement, CDK14-NanoLuc/Cyclin Y in HEK-293
CDK18/Cyclin Y = CDK18/Cyclin Y (Homo sapiens, UniProt Q07002); test: NanoBRET live-cell target engagement, CDK18-NanoLuc/Cyclin Y in HEK-293
CDK3/Cyclin E1 = CDK3/Cyclin E1 (Homo sapiens, UniProt Q00526); test: NanoBRET live-cell target engagement, CDK3-NanoLuc/Cyclin E1 in HEK-293
CDK2/Cyclin E1 = CDK2/Cyclin E1 (Homo sapiens, UniProt P24941); test: NanoBRET live-cell target engagement, CDK2-NanoLuc/Cyclin E1 in HEK-293; details: read-out: CDK2/E1 Inhibition at 10µM (%), 10µM
CDK17/Cyclin Y = CDK17/Cyclin Y (Homo sapiens, UniProt Q00537); test: NanoBRET live-cell target engagement, CDK17-NanoLuc/Cyclin Y in HEK-293
CDK16/Cyclin Y = CDK16/Cyclin Y (Homo sapiens, UniProt Q00536); test: NanoBRET live-cell target engagement, CDK16-NanoLuc/Cyclin Y in HEK-293; details: read-out: CDK16/Y Inhibition at 10µM (%), 10µM
CDK9/Cyclin K = CDK9/Cyclin K (Homo sapiens, UniProt P50750); test: NanoBRET live-cell target engagement, NanoLuc-CDK9/Cyclin K in HEK-293; type: binding
CDK12/Cyclin K = CDK12/Cyclin K (Homo sapiens, UniProt Q9NYV4); test: NanoBRET live-cell target engagement, CDK12-NanoLuc/Cyclin K in HEK-293; details: read-out: CDK12 occupancy at 10 µM
CDK13/Cyclin K = CDK13/Cyclin K (Homo sapiens, UniProt Q14004); test: NanoBRET live-cell target engagement, CDK13-NanoLuc/Cyclin K in HEK-293; details: read-out: CDK13 occupancy at 10 µM
CDK7 = CDK7 (Homo sapiens, UniProt P50613); test: NanoBRET live-cell target engagement, NanoLuc-CDK7 in HEK-293; details: read-out: Inhibition at 10µM (%), CDK7
CDK5/CDK5R1 = CDK5/CDK5R1 (Homo sapiens, UniProt Q00535); test: NanoBRET live-cell target engagement, CDK5-NanoLuc/CDK5R1 in HEK-293
CDK4/Cyclin D1 = CDK4/Cyclin D1 (Homo sapiens, UniProt P11802); test: NanoBRET live-cell target engagement, NanoLuc-CDK4/Cyclin D1 in HEK-293
[1] = read-out: Inhibition at 10µM (%) Average, CDK14/Y, 10µM, average of replicates
[2] = read-out: Inhibition at 10µM (%) Replicate 1, CDK14/Y, 10µM
[3] = read-out: Inhibition at 10µM (%) Replicate 2, CDK14/Y, 10µM
[4] = read-out: Inhibition at 10µM (%) Replicate 2
[5] = read-out: IC50 (nM) Average*, CDK9/K, n=3 average ± SEM, n=2 average to 2 significant figures
[6] = read-out: IC50 (nM) Replicate 1, CDK9/K
[7] = read-out: IC50 (nM) Replicate 2, CDK9/K
[8] = read-out: Inhibition at 10µM (%)

## CN(C)C(=O)c1cc2cnc(Nc3ccc(N4CCNCC4)cn3)nc2n1C1CCCC1
CDK15/Cyclin Y; read-out: CDK15/Y Inhibition at 10µM (%), 10µM, average of experiments
  inhibition at 10 µM: 9.8%
CDK15/Cyclin Y; read-out: CDK15/Y Inhibition at 10µM (%), 10µM, independent experiment 1
  inhibition at 10 µM: 0.338%
CDK15/Cyclin Y; read-out: CDK15/Y Inhibition at 10µM (%), 10µM, independent experiment 2
  inhibition at 10 µM: 19.3%
CDK1/Cyclin E1; read-out: CDK1/E1 Inhibition at 10µM (%), 10µM, average of experiments
  inhibition at 10 µM: 11.3%
CDK1/Cyclin E1; read-out: CDK1/E1 Inhibition at 10µM (%), 10µM, independent experiment 1
  inhibition at 10 µM: 4.6%
CDK1/Cyclin E1; read-out: CDK1/E1 Inhibition at 10µM (%), 10µM, independent experiment 2
  inhibition at 10 µM: 18%
CDK14/Cyclin Y; read-out: CDK14/Y Inhibition at 10µM (%), 10µM, average of experiments
  inhibition at 10 µM: 2.2%
CDK14/Cyclin Y; read-out: CDK14/Y Inhibition at 10µM (%), 10µM, independent experiment 1
  inhibition at 10 µM: 7.5%
CDK14/Cyclin Y; read-out: CDK14/Y Inhibition at 10µM (%), 10µM, independent experiment 2
  inhibition at 10 µM: -3.1%
CDK18/Cyclin Y; read-out: CDK18/Y Inhibition at 10µM (%), 10µM, average of experiments
  inhibition at 10 µM: 10.6%
CDK18/Cyclin Y; read-out: CDK18/Y Inhibition at 10µM (%), 10µM, independent experiment 1
  inhibition at 10 µM: 10.4%
CDK18/Cyclin Y; read-out: CDK18/Y Inhibition at 10µM (%), 10µM, independent experiment 2
  inhibition at 10 µM: 10.8%
CDK3/Cyclin E1; read-out: CDK3/E1 Inhibition at 10µM (%), 10µM, average of experiments
  inhibition at 10 µM: 8%
CDK3/Cyclin E1; read-out: CDK3/E1 Inhibition at 10µM (%), 10µM, independent experiment 1
  inhibition at 10 µM: 7.3%
CDK3/Cyclin E1; read-out: CDK3/E1 Inhibition at 10µM (%), 10µM, independent experiment 2
  inhibition at 10 µM: 8.6%
CDK2/Cyclin E1; average of experiments
  inhibition at 10 µM: -5.1%
CDK2/Cyclin E1; independent experiment 1
  inhibition at 10 µM: -14.3%
CDK2/Cyclin E1; independent experiment 2
  inhibition at 10 µM: 4%
CDK17/Cyclin Y; read-out: CDK17/Y Inhibition at 10µM (%), 10µM, average of experiments
  inhibition at 10 µM: 25.8%
CDK17/Cyclin Y; read-out: CDK17/Y Inhibition at 10µM (%), 10µM, independent experiment 1
  inhibition at 10 µM: 28.9%
CDK17/Cyclin Y; read-out: CDK17/Y Inhibition at 10µM (%), 10µM, independent experiment 2
  inhibition at 10 µM: 22.6%
CDK16/Cyclin Y; independent experiment 1
  inhibition at 10 µM: 34.3%
CDK16/Cyclin Y; independent experiment 2
  inhibition at 10 µM: 23.2%

## CCN1CCN(Cc2ccc(NC(=O)Nc3ccc(Oc4cc(NC)ncn4)cc3)cc2C(F)(F)F)CC1 [AST-487]
CDK15/Cyclin Y; read-out: Inhibition at 10µM (%) Average, CDK15/Y, 10µM, average of replicates
  inhibition at 10 µM: 75.3%
CDK15/Cyclin Y; read-out: Inhibition at 10µM (%) Replicate 1, CDK15/Y, 10µM
  inhibition at 10 µM: 64.7%
CDK15/Cyclin Y; read-out: Inhibition at 10µM (%) Replicate 2, CDK15/Y, 10µM
  inhibition at 10 µM: 85.8%
CDK14/Cyclin Y; [1]
  inhibition at 10 µM: 75.7%
CDK14/Cyclin Y; [2]
  inhibition at 10 µM: 65.9%
CDK14/Cyclin Y; [3]
  inhibition at 10 µM: 85.6%
CDK18/Cyclin Y; read-out: Inhibition at 10µM (%) Average, CDK18/Y, 10µM, average of replicates
  inhibition at 10 µM: 93.6%
CDK18/Cyclin Y; read-out: Inhibition at 10µM (%) Replicate 1, CDK18/Y, 10µM
  inhibition at 10 µM: 95.4%
CDK18/Cyclin Y; read-out: Inhibition at 10µM (%) Replicate 2, CDK18/Y, 10µM
  inhibition at 10 µM: 91.8%
CDK17/Cyclin Y; read-out: Inhibition at 10µM (%) Average, CDK17/Y, 10µM, average of replicates
  inhibition at 10 µM: 90.8%
CDK17/Cyclin Y; read-out: Inhibition at 10µM (%) Replicate 1, CDK17/Y, 10µM
  inhibition at 10 µM: 94.8%
CDK17/Cyclin Y; read-out: Inhibition at 10µM (%) Replicate 2, CDK17/Y, 10µM
  inhibition at 10 µM: 86.8%

## O=C(NC1CCNCC1)c1[nH]ncc1NC(=O)c1c(Cl)cccc1Cl [AT7519]
CDK1/Cyclin E1; read-out: Inhibition at 10µM (%) Average
  inhibition at 10 µM: 79.5%
CDK1/Cyclin E1; read-out: Inhibition at 10µM (%) Replicate 1
  inhibition at 10 µM: 77.2%
CDK1/Cyclin E1; [4]
  inhibition at 10 µM: 81.9%

## Cc1ncc(-c2ccnc(Nc3ccc(S(C)(=O)=O)cc3)n2)n1C(C)C [AZD5438]
CDK9/Cyclin K; [4]
  inhibition at 10 µM: 95.9%

## CNC1CCN(C(=O)c2ccc(Nc3ncc(F)c(-c4cnc(C)n4C(C)C)n3)cc2)C1 (stereo not drawn) [AZD5597]
CDK9/Cyclin K; [5]
  IC50: 9 nM
CDK9/Cyclin K; [6]
  IC50: 10 nM
CDK9/Cyclin K; [7]
  IC50: 7.9 nM

## CCN1CCN(Cc2ccc(Nc3ncc(F)c(-c4cc(F)c5nc(C)n(C(C)C)c5c4)n3)nc2)CC1 [Abemaciclib]
CDK14/Cyclin Y; IC50 (nM) Average*, CDK14/Y, n=3 average ± SEM, n=2 average to 2 significant figures
  IC50: 440 ± 90 nM
CDK14/Cyclin Y; IC50 (nM) Replicate 1, CDK14/Y
  IC50: 296 nM
CDK14/Cyclin Y; IC50 (nM) Replicate 2, CDK14/Y
  IC50: 420 nM
CDK14/Cyclin Y; IC50 (nM) Replicate 3, CDK14/Y
  IC50: 597 nM
CDK14/Cyclin Y; [1]
  inhibition at 10 µM: 63.2%
CDK14/Cyclin Y; [2]
  inhibition at 10 µM: 68.9%
CDK14/Cyclin Y; [3]
  inhibition at 10 µM: 57.5%

## CC(C)c1cnn2c(NCc3ccccc3)cc(N[C@@H](CO)[C@H](O)CO)nc12 [BS-194]
CDK9/Cyclin K; [5]
  IC50: 20 nM
CDK9/Cyclin K; [6]
  IC50: 22 nM
CDK9/Cyclin K; [7]
  IC50: 17 nM

## CC(C)c1cnn2c(NCc3ccccc3)cc(NC[C@H]3CCNC[C@@H]3O)nc12 [CT7001]
CDK1/Cyclin E1
  Inhibition at 10µM (%): 68.4% and 64.3%
CDK1/Cyclin E1; [8]
  inhibition at 10 µM: 60.3%

## CCc1cnn2c(NCc3ccc[n+]([O-])c3)cc(N3CCCC[C@H]3CCO)nc12 [Dinaciclib]
CDK15/Cyclin Y; average (± SEM where n=3)
  IC50: 150 nM
CDK15/Cyclin Y; experiment 1
  IC50: 167 nM
CDK15/Cyclin Y; experiment 2
  IC50: 130 nM
CDK15/Cyclin Y; read-out: Inhibition at 10µM (%), CDK15/Y, average
  inhibition at 10 µM: 94%
CDK15/Cyclin Y; read-out: Inhibition at 10µM (%), CDK15/Y, experiment 1
  inhibition at 10 µM: 94.4%
CDK15/Cyclin Y; read-out: Inhibition at 10µM (%), CDK15/Y, experiment 2
  inhibition at 10 µM: 93.5%
CDK12/Cyclin K
  receptor occupancy at 10 µM: ~50%
CDK13/Cyclin K
  receptor occupancy at 10 µM: ~50%

## NS(=O)(=O)c1ccc(Nc2nc(OCC3CCCCC3)c3nc[nH]c3n2)cc1 [NU6102]
CDK1/Cyclin E1
  Inhibition at 10µM (%): 96.1% and 91.7%
CDK1/Cyclin E1; [8]
  inhibition at 10 µM: 87.3%
CDK3/Cyclin E1; read-out: Inhibition at 10µM (%), CDK3/E1, average
  inhibition at 10 µM: 85.4%
CDK3/Cyclin E1; read-out: Inhibition at 10µM (%), CDK3/E1, experiment 1
  inhibition at 10 µM: 75.9%
CDK3/Cyclin E1; read-out: Inhibition at 10µM (%), CDK3/E1, experiment 2
  inhibition at 10 µM: 94.8%
CDK7; average
  inhibition at 10 µM: 45.2%
CDK7; experiment 1
  inhibition at 10 µM: 16.7%
CDK7; experiment 2
  inhibition at 10 µM: 73.8%
CDK5/CDK5R1; 10 µM
  Inhibition at 10µM (%): 66.8% and 74.5%
CDK5/CDK5R1; [8]
  inhibition at 10 µM: 82.2%
CDK4/Cyclin D1; 10 µM
  Inhibition at 10µM (%): 82.7% and 86.8%
CDK4/Cyclin D1; [8]
  inhibition at 10 µM: 90.9%

## CN1C/C=C/CCOc2cccc(c2)-c2ccnc(n2)Nc2cccc(c2)C1 [SB1317]
CDK9/Cyclin K; CDK9/K IC50 (nM)
  IC50: 11 nM and 7.6 nM and 9.3 nM
